The entries are a selection whose mix differs from that of the whole data set. Activity calls are given as the source filed them. No stated cut-off is given here; in the data, active means activation mostly above about 9.5% (no sharp cut-off); inactive means mostly below about 7.6%.
biological target: 5-hydroxytryptamine receptor 5A (Homo sapiens) (UniProt P47898); experiment: activation of human 5-HT5A receptor – cell-based, luminescence, full-deck HTS, counter-screen for OPRM1-OPRD1 heterodimer agonist project, primary screen (AID 504692); details: HTR5A agonist assay, at 9.3 µM, stronger effect = higher value;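 further: 0% = cells with vehicle only and 100% = reference agonist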

Sequences of proteins named here, by UniProt entry; tags and fusion partners are left off.
UniProt P47898, whole entry, looked up: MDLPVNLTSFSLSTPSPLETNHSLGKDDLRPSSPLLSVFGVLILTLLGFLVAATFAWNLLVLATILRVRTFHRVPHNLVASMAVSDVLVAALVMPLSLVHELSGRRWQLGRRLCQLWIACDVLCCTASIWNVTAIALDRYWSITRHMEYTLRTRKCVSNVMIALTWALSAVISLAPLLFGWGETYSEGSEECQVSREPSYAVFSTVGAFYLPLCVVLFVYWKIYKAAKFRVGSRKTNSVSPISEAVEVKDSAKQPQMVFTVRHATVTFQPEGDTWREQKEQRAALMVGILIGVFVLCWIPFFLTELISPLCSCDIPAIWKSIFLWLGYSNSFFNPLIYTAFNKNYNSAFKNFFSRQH

Compound	activation
Cc1ccc(-c2nnc(N3CCN(C(=O)Cn4c(=O)n(C)c5ccccc54)CC3)c3ccccc23)cc1	inactive: 0.96%
COc1ccc(/C([O-])=C(/C(=S)Nc2ccc(C)c(C)c2)n2c[n+](C)c3ccccc32)cc1OC	inactive: -4.64%
CCN(/C(=N/P(=O)(N1CCOCC1)N1CCOCC1)N1CCOCC1)c1ccc(OC)cc1	inactive: 3.2%
CC(C)C[C@H](NC(=O)N1CCn2c1nc1ccccc12)C(=O)NC1CCCCC1	inactive: 2.71%
O=C(Nc1ccc2c(c1)nc1n2CCN(Cc2ccccc2)C1)NC1CCCCC1	inactive: 2.36%
CCOC(=O)c1c(NC(=O)Cn2c(C)nc3ccccc32)sc2c1CCC2	inactive: 4.14%
Cn1c(=O)c2c(ncn2CC(=O)N2CCN(c3ccc([N+](=O)[O-])cc3)CC2)n(C)c1=O	inactive: 1.74%
CN1CCC(N(C)c2ncnc3ccc(Br)cc23)CC1	inactive: -2.4%
CCc1nc2ccccc2n1CC(=O)N(C(C)CC)C1CCS(=O)(=O)C1 (configuration not stated)	inactive: -3.28%
COC(=O)[C@H](Cc1ccc(O)cc1)NC(=O)Cn1cnc2c(NCc3ccccc3)ncnc21	inactive: 5.09%
Cn1c(=O)n(CC(=O)N2CCN(c3nnc(-c4ccccc4)c4ccccc34)CC2)c2ccccc21	inactive: -4.9%
CC(C)=N/N=C(\N)N[N+](=O)[O-]	inactive: 3.34%
CCN(CC)CCn1c(NCc2cccc(OC)c2OC)nc2ccccc21	inactive: -1.85%
NNC(=O)Cn1c(SCc2ccccc2)nc2ccccc21	inactive: 4.54%
O=C(Cn1cnc2c(OCc3ccccc3)ncnc21)NCCCN1CCCC1=O	inactive: 3.74%
CN(C)C(=O)OCCc1n(C)cc[n+]1C	inactive: -2.68%
CC1CCN(C(=O)Oc2c(Cl)cc(Cl)c3cccnc23)CC1	inactive: 0.42%
N=c1n(CCN2CCOCC2)c2ccccc2n1CC(=O)c1cccc([N+](=O)[O-])c1	inactive: 2.65%
CNC(=O)Cc1nc2ccccc2n1CC(=O)Nc1cc(C)cc(C)c1	inactive: 5.09%

Compound	activation
O=C1CC(C(=O)Nc2cccc(F)c2)n2c(nc3ccccc32)N1 (configuration not stated)	inactive: -0.2%
CCSc1nc2ccccc2n1CC(=O)N1CCCCC1	inactive: 9.65%
O=C(Cn1cnc2c(OCc3ccccc3)ncnc21)NCCCn1ccnc1	inactive: -0.5%
Cc1nc2ccccc2n1CC(=O)NC1CCCCCC1	inactive: 7.46%
O=C(NC1CCCCC1)N1CCC(n2c(=O)[nH]c3ccccc32)CC1	inactive: 17.8%
Cn1c(=O)c2c(nc(Sc3nc4ccccc4n3CC(=O)N3CCCCC3)n2C)n(C)c1=O	inactive: 0.83%
CCC(C)[C@H](NC(=O)N1CCn2c1nc1ccccc12)C(=O)NCCc1ccccc1 (some centres not stated)	inactive: -11.1%
C[C@H](O)[C@@H]1C(=O)N2CCc3ccc(-c4ccccc4)cc3[C@@H]2C[C@@H]1N(C)C(=O)Nc1cc(Cl)cc(Cl)c1	inactive: 5.99%
CCC(=O)Nc1cccc(C(=O)/C=C/c2cccs2)c1	inactive: -3.24%
Cn1c(=O)c2c(ncn2CC(=O)N/N=C/c2ccco2)n(C)c1=O	inactive: 2.65%
CCN(CC)CCn1c(=N)n(CCO)c2ccccc21	inactive: 1.09%
COc1ccc(C2=NCC(CBr)S2)cc1 (configuration not stated)	inactive: -2.79%
CC(=O)N1CCc2cc(S(=O)(=O)NC(CC(C)C)C(=O)N3CCn4c3nc3ccccc34)ccc21 (configuration not stated)	inactive: -3.33%
CCOC(=O)CSc1nc2ccccc2n1CC(=O)N1CCN(c2ccccc2)CC1	inactive: -5.78%
c1ccc(CN2CCC3(CC2)Nc2ccccc2CO3)cc1	inactive: 1.46%
CSc1nc(N)nc2c1ncn2CC(=O)NCCCc1ccccc1	inactive: 3.27%
Cn1c(=O)c2c(ncn2CC(=O)N2CCN(c3ccccc3F)CC2)n(C)c1=O	inactive: -3.45%
COc1cc(NC(=O)Cn2cnc3c(SC)nc(N)nc32)cc(OC)c1OC	inactive: -2.09%
Cc1ccc(SCc2nc3ccccc3n2CC(=O)Nc2ccccc2)cc1	inactive: 2.91%

Compound	activation
Cc1ccc2c(c1)C1CN(C)CCC1N2S(=O)(=O)c1ccc(Oc2ccc([N+](=O)[O-])cc2)cc1 (configuration not stated)	inactive: -5.62%
N#CCC(=O)N/N=C\c1cc(Br)ccc1OC/C=C/c1ccccc1	inactive: -2.7%
Cn1c(=O)c2c(nc(Cl)n2CC(=O)NC2(C#N)CCCCC2)n(C)c1=O	inactive: 5.27%
Cc1cc(NC(=O)CSc2nc3ccccc3n2CC(=O)N2CC(C)CC(C)C2)no1 (configuration not stated)	inactive: 2.74%
O=C(Cn1c(NCCO)nc2ccccc21)N1CCN(Cc2ccccc2)CC1	inactive: -2.99%
NC(=O)CC(NC(=O)c1ccccc1)c1ccc(NC2CCN(Cc3ccccc3)CC2)c([N+](=O)[O-])c1 (configuration not stated)	inactive: 0.45%
Cn1c(=O)c2c(ncn2CC(=O)Nc2ccccc2)n(C)c1=O	inactive: -11.9%
Nc1ccccc1CNc1nc(NCCO)nc2c1ncn2CCN1CCOCC1	inactive: -7.14%
N=c1n(CCN2CCCCC2)c2ccccc2n1CC(O)c1ccco1 (configuration not stated)	inactive: -2.44%
CC#CCCC(=O)N1C=Cc2ccccc2C1C#N (configuration not stated)	inactive: -1.53%
CC(=O)N1C2C3N(C(C)=O)C1C1N(C(C)=O)C(C(N1C(C)=O)N3C(C)=O)N2C(C)=O	inactive: 2.2%
Cn1ncc([N+](=O)[O-])c1C(=O)Nc1nc2ccccc2n1CCN1CCCCC1	inactive: -4.84%
O=[N+]([O-])c1cccc2n[nH]nc12	inactive: 0.75%
COC(=O)c1sccc1NC(=O)Cn1cnc2c1c(=O)n(C)c(=O)n2C	inactive: -5.61%
Cn1c(=O)[nH]c(=O)c2c1nc1n2CCN1Cc1ccccc1	inactive: 1.16%
N#CCCNC(=O)Cn1c(COc2ccc(Cl)cc2)nc2ccccc21	inactive: 3.11%
Cc1ccc(C)c(CN2CCC(n3nnc4cc(F)ccc43)CC2)c1	inactive: -0.1%
Nc1nonc1-c1nc2ccccc2n1CC(=O)N1CCCCC1	inactive: -1.31%
CCOc1ccccc1OCC(=O)NNC(=O)Cn1cnc2c1c(=O)n(C)c(=O)n2C	inactive: 1.38%
